Test results taken from patent publication US20140378460A1, “COMPOSITIONS AND METHODS FOR TREATING NEURODEGENERATIVE DISEASE” (COGNITION THERAPEUTICS, INC., priority 2011, published 2014).

The chains behind the UniProt entries cited, without tags or fusion partners. Residues count along the entry.
UniProt Q13224, 27-1484, species assumed: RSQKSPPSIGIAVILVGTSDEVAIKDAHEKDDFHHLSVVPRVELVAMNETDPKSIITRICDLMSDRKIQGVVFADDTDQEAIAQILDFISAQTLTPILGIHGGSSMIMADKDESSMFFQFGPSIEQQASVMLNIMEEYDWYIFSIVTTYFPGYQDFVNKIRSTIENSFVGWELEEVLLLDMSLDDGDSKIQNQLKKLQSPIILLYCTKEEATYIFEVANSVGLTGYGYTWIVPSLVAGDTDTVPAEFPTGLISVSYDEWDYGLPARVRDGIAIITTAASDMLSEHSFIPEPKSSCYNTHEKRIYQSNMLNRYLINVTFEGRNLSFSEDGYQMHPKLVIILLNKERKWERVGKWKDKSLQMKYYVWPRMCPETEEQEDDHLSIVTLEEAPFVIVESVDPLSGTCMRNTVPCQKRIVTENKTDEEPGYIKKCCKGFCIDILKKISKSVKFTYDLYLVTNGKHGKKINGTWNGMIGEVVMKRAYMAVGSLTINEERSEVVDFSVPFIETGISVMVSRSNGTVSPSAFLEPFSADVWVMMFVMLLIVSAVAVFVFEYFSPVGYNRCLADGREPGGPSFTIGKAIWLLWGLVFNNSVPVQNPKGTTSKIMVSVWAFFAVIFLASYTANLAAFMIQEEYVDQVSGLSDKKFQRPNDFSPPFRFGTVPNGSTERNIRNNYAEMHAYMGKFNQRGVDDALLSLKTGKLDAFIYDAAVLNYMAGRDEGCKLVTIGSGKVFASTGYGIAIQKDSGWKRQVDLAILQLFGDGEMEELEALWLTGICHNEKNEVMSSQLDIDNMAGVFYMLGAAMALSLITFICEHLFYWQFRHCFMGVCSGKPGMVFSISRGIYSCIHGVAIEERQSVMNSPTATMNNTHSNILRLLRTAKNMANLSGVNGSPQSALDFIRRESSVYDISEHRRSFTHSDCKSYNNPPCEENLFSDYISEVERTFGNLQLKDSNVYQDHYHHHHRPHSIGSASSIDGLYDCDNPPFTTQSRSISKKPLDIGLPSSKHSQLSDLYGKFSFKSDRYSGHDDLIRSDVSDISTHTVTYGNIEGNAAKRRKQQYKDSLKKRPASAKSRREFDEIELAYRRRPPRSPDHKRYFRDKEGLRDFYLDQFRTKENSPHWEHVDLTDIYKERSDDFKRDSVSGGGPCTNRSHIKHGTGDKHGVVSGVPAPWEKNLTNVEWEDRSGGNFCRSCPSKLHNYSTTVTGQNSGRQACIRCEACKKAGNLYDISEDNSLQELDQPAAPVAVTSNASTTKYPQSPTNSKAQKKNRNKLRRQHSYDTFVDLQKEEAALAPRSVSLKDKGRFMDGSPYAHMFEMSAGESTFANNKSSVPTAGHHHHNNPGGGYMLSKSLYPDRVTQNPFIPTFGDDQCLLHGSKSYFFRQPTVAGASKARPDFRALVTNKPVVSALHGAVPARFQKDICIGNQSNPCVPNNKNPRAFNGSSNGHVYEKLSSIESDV

Legend:
[1] = system: Abeta oligomer-induced membrane trafficking deficits in primary hippocampal neurons; assay: Membrane trafficking/exocytosis (MTT) assay; assay type: cell-based, rat; settings: synthetic Abeta oligomer, increasing compound concentrations
[2] = mouse, in vivo
[3] = In vivo PK, plasma and brain levels; settings: Compound II, at 3 hours in b899
NMDAR2B = NMDAR2B (Homo sapiens, UniProt Q13224); settings: b58; cited from earlier work

Row | SMILES | Shift of Abeta oligomer EC50 [1] | Brain penetration [2] | Brain/plasma ratio [3] | Brain/plasma ratio ([3]; listed as compound II) | Affinity NR2B (NMDAR2B) [nM]
1 | COc1cc(CCC(C)NCc2ccc(C(F)(F)F)cc2)ccc1O (centres unmarked) [Compound II] | rightward shift | highly brain penetrant | 8 | > 8 | –
2 | C[C@@H]([C@@H](O)c1ccc(O)cc1)N1CCC(Cc2ccccc2)CC1 [Threo-ifenprodil (TIF), Threo-ifenprodil] | – | – | – | – | 222
